A short description of data set [1]: Half-life in […] Phosphate buffer at pH 7.4(37 degrees C). In kind it is ADME. The method, boiled down: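 Acetal at 100 μM in 0.05 M phosphate buffer, pH 7.4, shaken at 37 °C without enzyme. Aliquots taken at intervals (typically 2–50 h) and parent drug measured by reverse-phase C-18 HPLC with UV detection at 220 nm. Half-life from linear least-squares regression of pseudo-first-order decay.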

The next data set is filed under the species Sus scrofa. Description: Half-life in […] at pH 7.4(37 degrees C) in the presence of pig Liver Carboxylate Esterase. The data set is classed as ADME.
In a further data set the test system is L1210. Description: Concentration required to reduce the viability of L1210 cells by 50% after 1-h incubation at 37 degrees C.

For three compounds, T1/2 and IC50 results are on record in ChEMBL document CHEMBL1125866, “Aldophosphamide acetal diacetate and structural analogues: synthesis and cytotoxicity studies” (J Med Chem, 1991).

Take `CCOP(=O)(OCCC(OC(C)=O)OC(C)=O)N(CCCl)CCCl` (stereo not given): the T1/2 in data set [1] turned out to be 29 h; in the data set listed under Sus scrofa, 42 s.
Regarding `COP(=O)(OCCC(OC(C)=O)OC(C)=O)N(CCCl)CCCl` (stereo not given), the T1/2 was 32 h in data set [1] and 42 s in the data set filed under Sus scrofa.
In the data set on L1210, `O=P(O)(N(CCCl)CCCl)N(CCCl)CCCl` yielded an IC50 of 97 µM.

The IC50 is the point on the concentration scale where inhibition reaches its midpoint.
